Test results reported in ChEMBL document CHEMBL1134717 (Bioorg Med Chem Lett, 2001).

By UniProt entry, the sequences of proteins in these tests, tags left out. Where a name states a change or a piece, a line headed by the entry shows the natural chain unless it says otherwise.
UniProt P41144: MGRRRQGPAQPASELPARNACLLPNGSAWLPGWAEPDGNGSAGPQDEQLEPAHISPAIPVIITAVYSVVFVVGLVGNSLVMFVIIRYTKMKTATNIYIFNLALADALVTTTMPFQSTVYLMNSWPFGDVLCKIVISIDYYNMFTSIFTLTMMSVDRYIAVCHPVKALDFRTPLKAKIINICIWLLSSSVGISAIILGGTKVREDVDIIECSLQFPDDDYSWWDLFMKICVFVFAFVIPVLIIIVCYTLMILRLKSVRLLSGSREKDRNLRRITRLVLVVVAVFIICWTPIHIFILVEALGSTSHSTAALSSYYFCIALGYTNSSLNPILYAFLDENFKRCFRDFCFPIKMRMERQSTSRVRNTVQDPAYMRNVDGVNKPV
UniProt P97266, whole entry: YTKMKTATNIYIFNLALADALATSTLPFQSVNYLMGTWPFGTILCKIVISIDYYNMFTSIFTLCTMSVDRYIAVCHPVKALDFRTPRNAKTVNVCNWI

Assays:
[1] = target: Kappa-type opioid receptor (Cavia porcellus, UniProt P41144); assay: Binding affinity towards guinea pig Opioid receptor kappa 1 using radioligand [3H]U69,593
Mu-type opioid receptor = Mu-type opioid receptor (Cavia porcellus, UniProt P97266); assay: Binding affinity towards guinea pig Opioid receptor mu 1 using radioligand [3H]DAMGO

SMILES: CC1C2Cc3ccc(C(N)=O)cc3C1(C)CCN2CC1CC1 (configuration not stated)
- Ki [1]: 530 pM
- Ki (Mu-type opioid receptor): 410 pM
